Consider three compounds from patent US8846705B2, “Diaminopyrimidines as P2X3 and P2X2/3 antagonists” (Roche Palo Alto LLC, priority 2004, dated 2014).

The target in this assay is T1, rat P2X3 receptor (Rattus norvegicus, UniProt P49654).
T1 sequence (P49654 1-397): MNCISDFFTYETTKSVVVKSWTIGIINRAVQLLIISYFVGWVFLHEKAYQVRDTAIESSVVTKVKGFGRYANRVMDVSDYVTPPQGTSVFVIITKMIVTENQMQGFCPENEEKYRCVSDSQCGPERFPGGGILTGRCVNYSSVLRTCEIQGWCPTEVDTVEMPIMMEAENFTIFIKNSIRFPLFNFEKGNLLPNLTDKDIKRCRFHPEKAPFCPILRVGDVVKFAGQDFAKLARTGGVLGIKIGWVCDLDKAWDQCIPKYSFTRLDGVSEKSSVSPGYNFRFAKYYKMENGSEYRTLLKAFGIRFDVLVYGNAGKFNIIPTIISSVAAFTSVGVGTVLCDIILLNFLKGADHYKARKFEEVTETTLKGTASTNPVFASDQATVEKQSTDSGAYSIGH
As to the kind of experiment: cell-based.
For orientation: IC50 means the concentration that gives 50% inhibition. In turn, `CCCc1cc(OC)c(OC)cc1Cc1cnc(N)nc1N` [5-(4,5-Dimethoxy-2-propyl-benzyl)-pyrimidine-2,4-diamine] came in with an IC50 greater than 10 µM.

`COc1cc(Cc2cnc(N)nc2N)c(C(C)(C)C)cc1OC` [5-(2-tert-Butyl-4,5-dimethoxy-benzyl)-pyrimidine-2,4-diamine] yielded an IC50 greater than 10 µM. The compound `COc1cc(Cc2cnc(N)nc2N)c(C(C)C)cc1OC` [5-(2-Isopropyl-4,5-dimethoxy-benzyl)-pyrimidine-2,4-diamine] had a concentration for half-maximal inhibition (IC50) of 0.115 µM.
